Patent US20210147343A1 (priority 2018, published 2021)

Sequences of proteins named here, by UniProt entry; tags and fusion partners are left off.
UniProt P35372, whole entry: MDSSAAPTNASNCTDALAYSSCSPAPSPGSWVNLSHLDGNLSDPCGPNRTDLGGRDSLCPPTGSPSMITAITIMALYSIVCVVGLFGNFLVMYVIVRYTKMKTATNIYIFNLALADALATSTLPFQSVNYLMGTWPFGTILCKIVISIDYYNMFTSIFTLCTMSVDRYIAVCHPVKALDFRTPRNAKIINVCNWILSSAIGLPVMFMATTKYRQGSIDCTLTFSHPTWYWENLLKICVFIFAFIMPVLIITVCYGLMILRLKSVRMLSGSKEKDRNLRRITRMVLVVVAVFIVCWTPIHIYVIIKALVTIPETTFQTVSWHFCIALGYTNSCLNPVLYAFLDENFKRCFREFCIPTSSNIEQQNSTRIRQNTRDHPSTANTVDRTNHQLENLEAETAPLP

Molecular target: mu opioid receptor (MOR) (Homo sapiens, UniProt P35372)
Assay: MOR cAMP agonist assay

Structure (SMILES): C[C@H](CC(=O)NC[C@H](Cc1ccc(C(N)=O)cc1)N(C)C)c1ccccc1 [Compound A-10, 4-((S)-2-(dimethylamino)-3-((R)-3-phenylbutanamido)propyl)benzamide]
- EC50: > 1000 nM
